The values that follow come from PMC9076861.

Assay [1] addresses human insulin receptor overexpressed on Rat-1 cells (Rat-1/hIR) (human) (UniProt P06213). The assay is described as follows: flow cytometry on cells; Rat-1/hIR cells with 100 nM FITC-labeled insulin plus low concentrations of the DNA aptamer IR-A62 (3.2–80 nM), added at the same time; 1 h at 4 °C in PBS, 1% BSA, 0.1% NaN3. In general terms: Flow cytometry measures light scatter and fluorescence of single cells or particles in a stream.

The target is the same in assay [2]. The assay is described as follows: flow cytometry on cells; Rat-1/hIR cells (1 x 10^6 cells/sample) with 100 nM FITC-labeled insulin alone; 1 h at 4 °C in PBS, 1% BSA, 0.1% NaN3; washed, fixed with 4% paraformaldehyde.

For the substance FITC-labeled insulin (ligand), the percent shift in the peak fluorescent intensity (with 3.2–80 nM IR-A62 aptamer) in assay [1] is 64.2%. Also, the percent shift in the peak fluorescent intensity in assay [2] came out at 6.24%.
